## Measured affinities in a library of Ab-14 heavy chain variants

From the AlphaSeq antibody data of Li et al. 2023 (doi:10.1038/s41467-023-39022-2), copy in the FLAb collection.

All variants were tested on one target, the spike HR2 peptide PDVDLGDISGINAS (SARS-CoV-2).

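The parent was found by panning a naive human phage display library on the peptide. The variants were designed computationally from a first round of random CDR variants and then made and measured. Several design methods are mixed in this list. Affinity was read by AlphaSeq, a pooled yeast mating assay with surface-displayed partners. After mating in shaken culture at 30 °C for 16 h, diploids were selected and their barcode pairs sequenced. Scores were corrected for input abundance and mapped to Kd with protein pairs of known affinity run in the same pool. There are six technical replicates.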

Ab-14 is the parent antibody, in scFv form: VH, then three GGGGS repeats, then VL. The light chain is unchanged in all variants.
VH: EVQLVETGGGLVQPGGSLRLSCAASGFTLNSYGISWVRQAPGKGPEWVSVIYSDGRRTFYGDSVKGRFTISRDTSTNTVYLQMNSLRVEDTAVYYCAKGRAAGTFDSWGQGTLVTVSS
VL: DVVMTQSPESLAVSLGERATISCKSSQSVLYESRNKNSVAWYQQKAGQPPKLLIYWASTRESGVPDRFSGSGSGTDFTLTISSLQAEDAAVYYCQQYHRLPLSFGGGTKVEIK

Substitutions are numbered in sequence along the VH above, starting at 1 (not Kabat). This list holds designs with at most six substitutions. Each Kd is an estimate from the mating assay, the geometric mean of the replicates in which the pair was seen; lower is stronger. "nd" marks a missing value. The strain was present, yet no cells mated with the target were sequenced in any replicate, which points to weak or no binding. The list is sorted by this average, lowest first, undetected variants last. As a blank, each scFv also met three strains without target: over all heavy chain designs, 1% of these pairings were detected, typically at 120 nM and seldom below 7.0 nM. The control count says in how many pairings with the empty strains this scFv gave a signal. The authors' rule: three or more of the six replicates give a measured affinity, fewer mean a poor binder. A sequence measured in both rounds can read differently, since the two assays cover different ranges.

The variant A101V+S107Q gave 59 pM (4 of 6 replicates; controls 0 of 18). For T28S+S31E+R56K+G61A+A101T, the assay gave 560 pM (6 of 6 replicates; controls 0 of 18). With T28S+G61D+R100S+A101L the result was 770 pM (6 of 6 replicates; controls 0 of 18). The variant T28E+S31E+A101E+S107K gave 770 pM (6 of 6 replicates; controls 0 of 18). The variant T28E+N30K+S53A+R100Q showed 780 pM (6 of 6 replicates; controls 0 of 18). For T28S+G61A+A101Q, the assay gave 980 pM (6 of 6 replicates; controls 0 of 18). For S53A+T58H+R100E, the assay gave 1.0 nM (6 of 6 replicates; controls 0 of 18). The variant T28S+A101T+S107T gave 1.5 nM (6 of 6 replicates; controls 0 of 18). The variant T28N+R100S+A101E gave 1.8 nM (6 of 6 replicates; controls 0 of 18).

With T28E+S31D+G61H the result was 1.8 nM (6 of 6 replicates; controls 0 of 18). The variant T28D+A101T+S107E showed 2.1 nM (6 of 6 replicates; controls 1 of 18). The variant T28G+S31E+G61H+S107Q gave 2.2 nM (6 of 6 replicates; controls 0 of 18). With T28D+G61A+A101W the result was 2.3 nM (6 of 6 replicates; controls 0 of 18). With S31D+G61A+S107E the result was 2.4 nM (6 of 6 replicates; controls 0 of 18). The variant T28N+G61A+R100T showed 3.0 nM (6 of 6 replicates; controls 0 of 18). With T28S+R100S+S107Q the result was 3.1 nM (6 of 6 replicates; controls 0 of 18). For T28D+Y32F+G61L+R100Q+A101E, the assay gave 3.5 nM (6 of 6 replicates; controls 1 of 18). For N30E+G61D+R100K, the assay gave 3.5 nM (5 of 6 replicates; controls 0 of 18).

With T28S+S31E+A101Y+S107T the result was 4.1 nM (5 of 6 replicates; controls 1 of 18). The variant T28S+S31E+R56K+A101H gave 4.2 nM (6 of 6 replicates; controls 0 of 18). With T28D+G61S+S63R+R100E+S107T the result was 4.3 nM (6 of 6 replicates; controls 0 of 18). The variant T28H+R100K+A101E gave 6.9 nM (5 of 6 replicates; controls 0 of 18). For T28W+S53A+R100Q, the assay gave 6.9 nM (4 of 6 replicates; controls 0 of 18). For T28K+S31E+G61I, the assay gave 8.8 nM (6 of 6 replicates; controls 1 of 18). For T28D+G61S+S63R+R100E, the assay gave 9.8 nM (6 of 6 replicates; controls 0 of 18). The variant G26Y+T28D+F59A+A101T showed 10 nM (6 of 6 replicates; controls 0 of 18). The variant T28E+G61A+A101M+S107T showed 13 nM (4 of 6 replicates; controls 0 of 18).

The variant T28N+G61I+R100Q+A101T gave 13 nM (6 of 6 replicates; controls 2 of 18). With T28Q+S31E+G61S the result was 30 nM (2 of 6 replicates; controls 0 of 18). For T28D+S31L+G61D+R100Q, the assay gave 52 nM (6 of 6 replicates; controls 1 of 18). For S31G+F59Q+G61I, the assay gave 66 nM (6 of 6 replicates; controls 0 of 18). The variant S31D+Y52G+G103L+D106I showed 100 nM (1 of 6 replicates; controls 1 of 18). The variant G26K+T28N+S31E+G61T+A101F gave 110 nM (5 of 6 replicates; controls 2 of 18). The variant T28D+N30D+A101R+T104W+D106E showed 160 nM (1 of 6 replicates; controls 1 of 18). For R56V+G61S+A102M, the assay gave 160 nM (1 of 6 replicates; controls 1 of 18). The variant G26K+T28N+G61A+A101N gave 220 nM (4 of 6 replicates; controls 0 of 18).

For S31K+I51D+G61N+A102Q+T104R, the assay gave 250 nM (1 of 6 replicates; controls 1 of 18). The variant F27E+G103L gave 9.3 µM (1 of 6 replicates; controls 0 of 18). With T28D+G61S+R100Q+G103V the result was nd (0 of 6 replicates; controls 0 of 18). With S63F+R100E the result was nd (0 of 6 replicates; controls 0 of 18). The variant N30M+S31E+G61T+A101F gave nd (0 of 6 replicates; controls 1 of 18). The variant L29I+F59W+G99D+F105K gave nd (0 of 6 replicates; controls 0 of 18). The variant G26N+N30V+S53A+F105T+D106K showed nd (0 of 6 replicates; controls 0 of 18). The variant T28E+R100M+G103H gave nd (0 of 6 replicates; controls 0 of 18). With S31E+G61T+A101F+D106W the result was nd (0 of 6 replicates; controls 0 of 18).

The variant F27L+A101C gave nd (0 of 6 replicates; controls 0 of 18). The variant S31E+S53A+R100K+G103D+S107N gave nd (0 of 6 replicates; controls 0 of 18). The variant N30D+I34G+T104Q+S107Q gave nd (0 of 6 replicates; controls 0 of 18).

Again, the first 5 entries without any signal:

changes,Kd (apparent),detected,control signals
T28D+G61S+R100Q+G103V,nd,0/6,0/18
S63F+R100E,nd,0/6,0/18
N30M+S31E+G61T+A101F,nd,0/6,1/18
L29I+F59W+G99D+F105K,nd,0/6,0/18
G26N+N30V+S53A+F105T+D106K,nd,0/6,0/18